{
  "sequences": {"note": "By UniProt entry, the sequences of proteins in these tests, tags left out. Where a name states a change or a piece, a line headed by the entry shows the natural chain unless it says otherwise.", "UniProt Q13131": "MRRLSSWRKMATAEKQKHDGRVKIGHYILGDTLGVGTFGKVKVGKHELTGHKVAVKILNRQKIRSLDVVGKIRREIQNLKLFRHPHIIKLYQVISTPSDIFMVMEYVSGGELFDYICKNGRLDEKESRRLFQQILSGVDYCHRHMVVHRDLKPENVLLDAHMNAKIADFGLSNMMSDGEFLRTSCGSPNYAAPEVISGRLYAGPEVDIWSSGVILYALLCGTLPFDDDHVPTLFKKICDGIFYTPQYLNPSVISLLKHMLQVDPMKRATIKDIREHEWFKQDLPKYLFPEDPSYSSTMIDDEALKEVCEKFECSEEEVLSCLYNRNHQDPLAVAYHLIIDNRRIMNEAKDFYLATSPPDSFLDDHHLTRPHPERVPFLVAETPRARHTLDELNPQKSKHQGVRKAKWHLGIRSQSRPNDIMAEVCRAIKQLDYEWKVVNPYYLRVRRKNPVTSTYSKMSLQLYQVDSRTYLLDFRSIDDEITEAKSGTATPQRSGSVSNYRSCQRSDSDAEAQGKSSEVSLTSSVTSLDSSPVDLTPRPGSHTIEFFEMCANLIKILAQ", "UniProt Q9Y478": "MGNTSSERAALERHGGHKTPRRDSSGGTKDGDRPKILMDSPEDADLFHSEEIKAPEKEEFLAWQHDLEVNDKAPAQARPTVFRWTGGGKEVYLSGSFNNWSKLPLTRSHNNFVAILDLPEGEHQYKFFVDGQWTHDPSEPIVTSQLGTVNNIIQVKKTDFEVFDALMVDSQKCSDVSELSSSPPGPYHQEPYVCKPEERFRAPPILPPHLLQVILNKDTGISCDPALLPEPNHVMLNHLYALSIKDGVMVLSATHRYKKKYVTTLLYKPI"},
  "source": "paper PMC5402287",
  "about": "“Glucose-dependent regulation of pregnane X receptor is modulated by AMP-activated protein kinase” (Scientific Reports, 2017)",
  "molecular_target": "T1, recombinant active AMPK (A1/B1/G2) (Homo sapiens, UniProt Q13131+Q9Y478)",
  "T1 construct": "purchased SignalChem (Richmond, BC, Canada)",
  "assay": "in vitro AMPK kinase assay coupled with ADP-Glo assay",
  "format": "biochemical",
  "data": [
    {"molecule": "c1cc(-c2cnn3cc(-c4ccc(OCCN5CCCCC5)cc4)cnc23)ccn1", "note": "[Dorsomorphin, 6-[4-(2-piperidin-1-ylethoxy)phenyl]-3-pyridin-4-ylpyrazolo[1,5-a]pyrimidine]", "values": [
      {"measurement": "IC50", "result": 127, "unit": "nM"}
    ]}
  ]
}
